# Laboratory results taken from ChEMBL document CHEMBL2413051, “Antibacterial activity of quinoxalines, quinazolines, and 1,5-naphthyridines” (2013).
# Tested on: Staphylococcus aureus
# Assay: Ratio of MBC to MIC for methicillin-sensitive Staphylococcus aureus 8325-4
# Format: functional
# How it was run: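 MBC/MIC ratio for MSSA 8325-4: MIC by CLSI broth microdilution (lowest concentration with ≥90% growth inhibition), MBC by a previously described method. Ratio 1–2 taken as bactericidal, ≥8 as bacteriostatic per CLSI; vancomycin and erythromycin run as bactericidal and bacteriostatic comparators.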
structure (smiles),measurement,value
CC[C@H]1OC(=O)[C@H](C)[C@@H](O[C@H]2C[C@@](C)(OC)[C@@H](O)[C@H](C)O2)[C@H](C)[C@@H](O[C@@H]2O[C@H](C)C[C@H](N(C)C)[C@H]2O)[C@](C)(O)C[C@@H](C)C(=O)[C@H](C)[C@@H](O)[C@]1(C)O [ERYTHROMYCIN],Ratio,256
